Test results reported in patent US8927500B2, “Peptidomimetic macrocycles” (Aileron Therapeutics, Inc., priority 2012, dated 2015).

Legend:
RKO cells = test: Cell viability assay (MTT), RKO; settings: read-out: RKO EC50 (72 h)
SJSA-1 cells [1] = test: Cell viability assay (MTT), SJSA-1; settings: read-out: SJSA-1 EC50 (72 h)
Caspase 3 = Caspase 3 detection assay in SJSA1 cells; assay type: cell-based; settings: 48 h, Caspase 3 activation over DMSO-treated cells
p21 = test: P21 ELISA assay in SJSA1 cells; assay type: cell-based, Human
[2] = Circular dichroism (CD) analysis of alpha-helicity; assay type: physicochemical; settings: difference 50% TFE minus benign
SJSA-1 cells [3] = test: Cell lysis by peptidomimetic macrocycles (LDH release); assay type: cell-based; settings: 1 h at 37C

With `CC[C@H](C)[C@H](NC(=O)[C@H](C)NC(=O)[C@H](C)NC(=O)[C@]1(C)CCCC=CCCCCCC[C@@](C)(NC(=O)[C@H](Cc2ccccc2)NC(=O)[C@@H](NC(=O)[C@H](CC(C)C)NC(C)=O)[C@@H](C)O)C(=O)N[C@@H](C)C(=O)N[C@@H](Cc2ccc(O)cc2)C(=O)N[C@@H](Cc2c[nH]c3ccccc23)C(=O)N[C@@H](C)C(=O)N[C@@H](CCC(N)=O)C(=O)N[C@@H](CC(C)C)C(=O)N1)C(=O)N[C@@H](C)C(N)=O` (single isomer, unassigned) [compound 65] the EC50 (RKO cells) was 5 to 15 µM and the EC50 (SJSA-1 cells [1]) was under 5 µM.

`CC[C@H](C)[C@H](NC(=O)[C@H](C)NC(=O)[C@H](C)NC(=O)[C@]1(C)CCCC=CCCCCCC[C@@](C)(NC(=O)[C@H](Cc2ccccc2)NC(=O)[C@@H](NC(=O)[C@H](CC(C)C)NC(C)=O)[C@@H](C)O)C(=O)N[C@@H](C)C(=O)N[C@@H](Cc2ccc(O)cc2)C(=O)N[C@@H](Cc2c[nH]c3ccccc23)C(=O)N[C@@H](C)C(=O)N[C@@H](CCC(N)=O)C(=O)N[C@@H](CC(C)C)C(=O)N1)C(=O)N[C@H](C)C(N)=O` (single isomer, unassigned) [compound 70] showed an EC50 (RKO cells) of under 5 µM and an EC50 (SJSA-1 cells [1]) of under 5 µM.

`CCCC[C@H](NC(=O)[C@H](C)NC(=O)[C@H](C)NC(=O)[C@]1(C)CCCC=CCCCCCC[C@@](C)(NC(=O)[C@H](Cc2ccccc2)NC(=O)[C@@H](NC(=O)[C@H](CC(C)C)NC(C)=O)[C@@H](C)O)C(=O)N[C@@H](C)C(=O)N[C@@H](Cc2ccc(O)cc2)C(=O)N[C@@H](Cc2c[nH]c3ccccc23)C(=O)N[C@@H](C)C(=O)N[C@@H](CCC(N)=O)C(=O)N[C@@H](CC(C)C)C(=O)N1)C(=O)N[C@H](C)C(N)=O` (single isomer, unassigned) [compound 74] showed an EC50 (SJSA-1 cells [1]) of under 5 µM.

In the case of `CC(=O)N[C@@H](CC(C)C)C(=O)N[C@H](C(=O)N[C@@H](Cc1ccc(F)c(F)c1)C(=O)N[C@]1(C)CCCCCCC=CCCC[C@@](C)(C(=O)N[C@@H](CO)C(=O)N[C@@H](C)C(=O)N[C@@H](C)C(N)=O)NC(=O)[C@H](CC(C)C)NC(=O)[C@H](CCC(N)=O)NC(=O)[C@H](C)NC(=O)[C@H](Cc2c[nH]c3ccccc23)NC(=O)[C@H](Cc2ccc(O)cc2)NC(=O)[C@H](CCC(=O)O)NC1=O)[C@@H](C)O` (single isomer, unassigned) [compound 158], the EC50 (RKO cells) is reported as over 30 µM and the “caspase 3 uM” value (Caspase 3; 3 uM peptide) is reported as 1.67.

For `CCCC[C@H](NC(=O)[C@H](C)NC(=O)[C@H](CO)NC(=O)[C@]1(C)CCCC=CCCCCCC[C@@](C)(NC(=O)[C@H](Cc2ccccc2)NC(=O)[C@@H](NC(=O)[C@H](CC(C)C)NC(C)=O)[C@@H](C)O)C(=O)N[C@@H](CCC(=O)O)C(=O)N[C@@H](Cc2ccc(C(=O)O)cc2)C(=O)N[C@@H](Cc2c[nH]c3cc(Cl)ccc23)C(=O)N[C@@H](C)C(=O)N[C@@H](CCC(N)=O)C(=O)N[C@@H](CC2CCC2)C(=O)N1)C(=O)N[C@@H](C)C(N)=O` (single isomer, unassigned) [compound 333], the EC50 (SJSA-1 cells [1]) was 15 to 30 µM.

With `CC(C)C[C@H](NC(=O)CN(C)C)C(=O)N[C@H](C(=O)N[C@@H](Cc1ccccc1)C(=O)N[C@]1(C)CCCCCCC=CCCC[C@@](C)(C(=O)N[C@@H](C)C(=O)N[C@@H](C)C(=O)N[C@@H](C)C(=O)N[C@@H](C)C(=O)N[C@@H](C)C(=O)N[C@H](C)C(N)=O)NC(=O)[C@H](CC(C)C)NC(=O)[C@H](CCC(N)=O)NC(=O)[C@H](C)NC(=O)[C@H](Cc2c[nH]c3ccccc23)NC(=O)[C@H](Cc2ccc(O)cc2)NC(=O)[C@H](C)NC1=O)[C@@H](C)O` (single isomer, unassigned) [compound 436] the EC50 (RKO cells) was under 5 µM and the EC50 (SJSA-1 cells [1]) was under 5 µM.

Molecule `CCCC[C@H](NC(=O)[C@]1(C)CCCC=CCCC[C@]2(C)NC(=O)[C@H](C)NC(=O)[C@H](Cc3c[nH]c4ccccc34)NC(=O)[C@H](Cc3ccc(O)cc3)NC(=O)[C@H](C)NC(=O)[C@](C)(NC(=O)[C@H](Cc3ccccc3)NC(=O)[C@@H](NC(=O)[C@H](CC(C)C)NC(C)=O)[C@@H](C)O)CCCCCCC=CCCC[C@](C)(NC(=O)[C@H](CC(C)C)NC2=O)C(=O)N[C@@H](CO)C(=O)N1)C(N)=O` [compound 12] has an EC50 (SJSA-1 cells [1]) of 15 to 30 µM.

`CC(=O)N[C@@H](CC(C)C)C(=O)N[C@H](C(=O)N[C@@H](Cc1ccccc1)C(=O)N[C@]1(C)CCCCCCC=CCCC[C@]2(C)NC(=O)[C@H](CC(C)C)NC(=O)[C@](C)(CCCC=CCCC[C@@](C)(C(=O)N[C@@H](C)C(N)=O)NC(=O)[C@H](CO)NC2=O)NC(=O)[C@H](C)NC(=O)[C@H](Cc2c[nH]c3ccccc23)NC(=O)[C@H](Cc2ccc(O)cc2)NC(=O)[C@H](C)NC1=O)[C@@H](C)O` [compound 13] gave an EC50 (SJSA-1 cells [1]) of 5 to 15 µM.

For `CCCC[C@H](NC(=O)[C@H](C)NC(=O)[C@H](C)NC(=O)[C@]1(C)CCC/C=C/CCCCCC[C@@](C)(NC(=O)[C@H](Cc2ccccc2)NC(=O)[C@@H](NC(=O)[C@H](CC(C)C)NC(C)=O)[C@@H](C)O)C(=O)N[C@@H](C)C(=O)N[C@@H](Cc2ccc(O)cc2)C(=O)N[C@@H](Cc2c[nH]c3ccccc23)C(=O)N[C@@H](C)C(=O)N[C@@H](CCC(N)=O)C(=O)N[C@@H](CC(C)C)C(=O)N1)C(=O)N[C@@H](C)C(N)=O` [compound 69], the “p21 0.3 uM” value (p21; 0.3 uM peptide) was 272, the “p21 1 uM” value (p21; 1 uM peptide) was 458.72 and the “p21 3 uM” value (p21; 3 uM peptide) was 1281.39. The “p21 10 uM” value (p21; 10 uM peptide) was 2138.88, the “p21 30 uM” value (p21; 30 uM peptide) was 1447.22 and the EC50 (RKO cells) was under 5 µM. The “Molar Ellipticity TFE-Molar Ellipticity Benign” value [2] was −21407.1 deg cm2 dmol-1 and the EC50 (SJSA-1 cells [1]) was under 5 µM.

With `CC[C@H](C)[C@H](NC(=O)[C@H](C)NC(=O)[C@H](C)NC(=O)[C@]1(C)CCC/C=C/CCCCCC[C@@](C)(NC(=O)[C@H](Cc2ccccc2)NC(=O)[C@@H](NC(=O)[C@H](CC(C)C)NC(C)=O)[C@@H](C)O)C(=O)N[C@@H](C)C(=O)N[C@@H](Cc2ccc(O)cc2)C(=O)N[C@@H](Cc2c[nH]c3ccccc23)C(=O)N[C@@H](C)C(=O)N[C@@H](CCC(N)=O)C(=O)N[C@@H](CC(C)C)C(=O)N1)C(=O)N[C@H](C)C(N)=O` [compound 71] the EC50 (RKO cells) was under 5 µM, the “caspase 10 uM” value (Caspase 3; 10 uM peptide) was 14.72 and the EC50 (SJSA-1 cells [1]) was under 5 µM.

With `CC(=O)N[C@@H](CC(C)C)C(=O)N[C@H](C(=O)N[C@@H](Cc1ccccc1)C(=O)N[C@]1(C)CCCCCCC=CCCC[C@@](C)(C(=O)N[C@@H](CO)C(=O)N[C@H](C(=O)N[C@@H](CO)C(N)=O)C(C)C)NC(=O)[C@H](CC(C)C)NC(=O)[C@H](CCC(N)=O)NC(=O)[C@H](C)NC(=O)[C@H](Cc2c[nH]c3ccccc23)NC(=O)[C@H](Cc2ccc(O)cc2)NC(=O)[C@H](C)NC1=O)[C@@H](C)O` [compound 121] the “12.5 uM % Lysed cells (1 h LDH)” value (SJSA-1 cells [3]) was 0% and the EC50 (RKO cells) was under 5 µM.

In the case of `CC[C@H](C)[C@H](NC(=O)[C@H](C)NC(=O)[C@H](C)NC(=O)[C@]1(C)CCCCCCC=CCCC[C@@](C)(NC(=O)[C@H](Cc2ccccc2)NC(=O)[C@@H](NC(=O)[C@H](CC(C)C)NC(C)=O)[C@@H](C)O)C(=O)N[C@@H](C)C(=O)N[C@@H](Cc2ccc(O)cc2)C(=O)N[C@@H](Cc2c[nH]c3ccccc23)C(=O)N[C@@H](C)C(=O)N[C@@H](CCC(N)=O)C(=O)N[C@@H](CC(C)C)C(=O)N1)C(=O)N[C@H](C)C(N)=O` [compound 234], the EC50 (SJSA-1 cells [1]) is reported as under 5 µM.

Work on `CC(C)C[C@H](NC(=O)CN(C)C)C(=O)N[C@H](C(=O)N[C@@H](Cc1ccccc1)C(=O)N[C@]1(C)CCCCCC/C=C/CCC[C@@](C)(C(=O)N[C@@H](C)C(=O)N[C@@H](C)C(=O)N[C@@H](C)C(=O)N[C@@H](C)C(=O)N[C@@H](C)C(=O)N[C@H](C)C(N)=O)NC(=O)[C@H](CC(C)C)NC(=O)[C@H](CCC(N)=O)NC(=O)[C@H](C)NC(=O)[C@H](Cc2c[nH]c3ccccc23)NC(=O)[C@H](Cc2ccc(O)cc2)NC(=O)[C@H](C)NC1=O)[C@@H](C)O` [compound 437] yielded an EC50 (RKO cells) of under 5 µM and an EC50 (SJSA-1 cells [1]) of under 5 µM.

Work on `CC(=O)N[C@@H](CC(C)C)C(=O)N[C@H](C(=O)N[C@@H](Cc1ccccc1)C(=O)N[C@]1(C)CCCCC#CC#CCCC[C@@](C)(C(=O)N[C@@H](C)C(=O)N[C@@H](C)C(=O)N[C@@H](C)C(=O)N[C@@H](C)C(=O)N[C@@H](C)C(=O)N[C@H](C)C(N)=O)NC(=O)[C@H](CC(C)C)NC(=O)[C@H](CCC(N)=O)NC(=O)[C@H](C)NC(=O)[C@H](Cc2c[nH]c3ccccc23)NC(=O)[C@H](Cc2ccc(O)cc2)NC(=O)[C@H](C)NC1=O)[C@@H](C)O` [compound 662] yielded an EC50 (SJSA-1 cells [1]) of under 5 µM.

Molecule `CC(=O)N[C@@H](CC(C)C)C(=O)N[C@H](C(=O)N[C@@H](Cc1ccccc1)C(=O)N[C@]1(C)CCCCCCC#CCCC[C@@](C)(C(=O)N[C@@H](C)C(=O)N[C@@H](C)C(=O)N[C@@H](C)C(=O)N[C@@H](C)C(=O)N[C@@H](C)C(=O)N[C@H](C)C(N)=O)NC(=O)[C@H](CC(C)C)NC(=O)[C@H](CCC(N)=O)NC(=O)[C@H](C)NC(=O)[C@H](Cc2c[nH]c3ccccc23)NC(=O)[C@H](Cc2ccc(O)cc2)NC(=O)[C@H](C)NC1=O)[C@@H](C)O` [compound 665] has an EC50 (SJSA-1 cells [1]) of under 5 µM.
